Data reported in patent US20230172929A1, “NOVEL PERIPHERAL CANNABINOID-1 RECEPTOR ANTAGONISTS” (Yissum Research Development Company of the Hebrew …, priority 2019, published 2023).
Like-named read-outs stand apart in the source and are kept apart here.

Chains of the proteins cited; added tags and fusions are not shown.
UniProt P47746, whole entry: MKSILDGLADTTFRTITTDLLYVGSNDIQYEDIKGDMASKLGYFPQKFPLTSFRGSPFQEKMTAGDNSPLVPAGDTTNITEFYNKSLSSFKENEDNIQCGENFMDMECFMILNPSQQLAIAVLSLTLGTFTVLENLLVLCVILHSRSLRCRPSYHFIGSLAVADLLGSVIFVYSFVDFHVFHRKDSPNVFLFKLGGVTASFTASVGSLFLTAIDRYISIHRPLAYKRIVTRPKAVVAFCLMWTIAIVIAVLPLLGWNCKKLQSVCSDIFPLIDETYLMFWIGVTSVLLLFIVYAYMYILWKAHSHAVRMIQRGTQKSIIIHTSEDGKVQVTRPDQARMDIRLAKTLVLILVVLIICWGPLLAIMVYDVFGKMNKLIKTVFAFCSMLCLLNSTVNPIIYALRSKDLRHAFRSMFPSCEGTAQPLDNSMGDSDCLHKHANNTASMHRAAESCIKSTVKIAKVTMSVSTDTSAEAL

Biological target: CB1R (Mus musculus, UniProt P47746)
Experiment: Radioligand binding assay, competition displacement of [3H]CP-55,940, CB1R

SMILES: CC1=C(C(=O)Nc2ccccc2C(F)(F)F)[C@@H](c2ccc(OCc3ccccc3)cc2)NC(=S)N1
- Ki (read-out: Ki (μM) R, separated isomer R): 0.29 µM

SMILES: Cc1cccc(NS(=O)(=O)c2cc(C(=O)NCCc3c[nH]c4ccccc34)c(Cl)cc2Cl)c1
- Ki (CB1R competitive binding, mouse brain membranes, [3H]CP-55,940): 1 µM

SMILES: CC(=O)NC(CC(=O)NCC(c1ccccc1Cl)c1c[nH]c2ccccc12)c1ccc(C)cc1 (single isomer, unassigned)
- Ki (read-out: Ki (μM) RR, separated isomer RR): 1.1 µM
- Ki (read-out: Ki (μM) RS, separated isomer RS): 5.6 µM
- Ki (read-out: Ki (μM) SR, separated isomer SR): 5.5 µM
- Ki (read-out: Ki (μM) SS, separated isomer SS): 1.8 µM

SMILES: CC1=C(C(=O)Nc2ccccc2C(F)(F)F)C(c2ccc(OCc3ccccc3)cc2)NC(=S)N1 (single isomer, unassigned)
- Ki (read-out: Ki (μM) S, separated isomer S): 0.977 µM
